The record followed here is PubChem BioAssay AID651640 (Broad Institute, 2012).

Each structure is given as a SMILES string. Only a part is listed here, and it is no random draw. Results filed as inconclusive are left out. The source made the active and inactive calls. Rule as the data show it: active = CPE inhibition above about 20% (passing the limit was not always enough); inconclusive = no clear call, values can overlap the other calls; tested in BHK-21 cells.

A short description of this experiment: inhibitors of DENV2 cytopathic effect, primary screen, cell-based, plate reader, single concentration (AID 651640).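 Also: 0% = median of neutral control wells and 100% = median of positive control wells.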 To be noted: DENV2-infected cells, cytopathic effect rescue, at 9.99 µM, active compounds read high. (Damage to the host cells serves as the signal in cytopathic effect assays.)
For the molecule `CCOP(=O)(Nc1cccc2ccccc12)OCC`, the CPE inhibition is inactive: 2.22%.

In the case of `Nc1cccc2c([As](=O)(O)O)cccc12`, the CPE inhibition is inactive: 1.79%. In the case of `Cc1ccc(NCCc2c([N+](=O)[O-])cc([N+](=O)[O-])cc2[N+](=O)[O-])cc1`, the CPE inhibition was inactive: 1.56%. On to `CCCOP(=S)(Nc1nc(N)cc(=O)[nH]1)OCCC`, for which the CPE inhibition was inactive: 9.05%. `O=[As](O)(c1cccc(O)c1)c1cccc(O)c1`: the CPE inhibition was inactive: -5.31%. Then `O=C(OC1CN2CCC1CC2)c1ccc(Cl)cc1` (configuration not stated), with inactive: 6.11%; and `O=[As](O)(O)c1cccnc1`, with inactive: -0.26%. Then `COc1cc(C(=O)NCC2(N3CCOCC3)CCCCC2)cc(Cl)c1OC(C)C`, with inactive: 3.64%; and `CS(=O)(=O)c1ccc(Cl)c(NC(=O)COC(=O)C(O)(c2ccccc2)c2ccccc2)c1`, with inactive: -0.882%; and `N#CCCN(C(=O)COC(=O)C(O)(c1ccccc1)c1ccccc1)c1ccc(F)cc1`, with inactive: 11.3%. Then `CN(C(=O)Cc1ccccc1)[C@@H]1CC[C@]2(CCCO2)C[C@H]1N1CCCC1`, with inactive: 10.8%. In the case of `CCOP1(=S)c2c(C)nn(CCC#N)c2N=C(c2ccc(F)cc2)N1C` (configuration not stated), the CPE inhibition is inactive: -4.98%. To `CN(C)C(=O)c1cc([N+](=O)[O-])cc2c1-c1c(cc([N+](=O)[O-])cc1[N+](=O)[O-])C2=O` belongs inactive: -4.13%; to `CN(C(=O)Cc1ccc(Cl)c(Cl)c1)[C@H]1CC[C@@]2(CCCO2)C[C@@H]1N1CCCC1`, inactive: 10.3%. To `NC(=O)Nc1ccc([As](=O)(O)O)cc1` belongs inactive: -4.51%; to `O=C(O)COc1ccc([As](=O)(O)O)cc1[N+](=O)[O-]`, inactive: 1.23%. Then `Nc1ccccc1[As](=O)(O)c1ccccc1`, with inactive: -0.428%. Turning to `O=P(Nc1nccs1)(Oc1ccccc1)Oc1ccccc1`, the CPE inhibition was inactive: 6.75%.

Regarding `Nc1cccc([As](=O)(O)c2ccccc2)c1`, the CPE inhibition is inactive: 7.09%. For `O=[As](O)(c1cccs1)c1cccs1`, the CPE inhibition is inactive: -3.65%. As for `NS(=O)(=O)c1cccc(NC(=O)COC(=O)C(O)(c2ccccc2)c2ccccc2)c1`, the CPE inhibition is inactive: 1.66%. Then `CN(C)C1(CNC(=O)c2ccc(S(C)(=O)=O)cc2)CCCCC1`, with inactive: -3.07%. To `O=C(/C=C/c1ccccc1)OC1CN2CCC1CC2` (configuration not stated) belongs active: 31.9%; to `CCCC1OP(=O)(Nc2ccccc2)OCC1CC` (configuration not stated), inactive: -4.38%; to `Cc1ccc(C(=O)OC2CN3CCC2CC3)cc1` (configuration not stated), inactive: -1.87%. As to `CC1CCC(C(C)C)C(OP(=O)(Nc2ccccn2)c2ccccc2)C1` (configuration not stated), the CPE inhibition is inactive: -13%. Then `CN(C(=O)Cc1ccc(Cl)c(Cl)c1)[C@@H]1CCCC[C@H]1N1CCCC1`, with inactive: 16.3%; and `CC(C)/C=N\N=C(\N)N[N+](=O)[O-]`, with inactive: -2.11%; and `O=P1(N(CCCl)CCCl)NCCC(C(F)(F)F)O1` (configuration not stated), with inactive: 2.24%. Take `CC(C)(C)C(=O)NC(Sc1ncccn1)C(Cl)(Cl)Cl` (configuration not stated): the CPE inhibition was inactive: -4.49%. To `CCC1=CC2Cc3nc4ccc(Cl)cc4c(N)c3C(C1)C2` (configuration not stated) belongs inactive: -22.8%; to `CCOP(=O)(NC(=NC(C)c1ccccc1)NC(C)c1ccccc1)OCC` (configuration not stated), inactive: -7.82%; to `CCOP(=O)(Nc1ccc(C)cn1)OCC`, inactive: 10.2%. Then `CN(CCCl)Cc1cc(Cl)c(NC2=NCCN2)c(Cl)c1`, with inactive: 11.6%. To `O=C(OC1CN2CCC1CC2)c1cccc([N+](=O)[O-])c1` (configuration not stated) belongs inactive: 4.13%; to `CCOC(=O)c1ccc(NC(=O)C(C)(CCl)SC)cc1` (configuration not stated), inactive: -1.52%.

Consider `O=C(O)C(=O)c1ccc(N(CCCl)CCCl)cc1`, for which the CPE inhibition was inactive: 2.03%.

As for `O=C(Nc1ccncc1[N+](=O)[O-])c1ccc([N+](=O)[O-])cc1[N+](=O)[O-]`, the CPE inhibition is inactive: -9.22%. Then `COP1(=S)c2c(C)nn(CCC#N)c2N=C(c2ccc(F)cc2)N1C` (configuration not stated), with inactive: -3.42%; and `COC(=O)C1(C)COP(=O)(N2CCCC2)OC1` (configuration not stated), with inactive: -4.48%; and `O=P(Nc1ccccn1)(c1cccc2ccccc12)c1cccc2ccccc12`, with inactive: 13.4%. On to `O=[N+]([O-])c1ccc(Nc2ccc(Oc3ccc([N+](=O)[O-])cc3[N+](=O)[O-])cc2)c([N+](=O)[O-])c1`, for which the CPE inhibition was inactive: -5.64%. To `CCOC(=O)Nc1cccc([As](=O)(O)O)c1` belongs inactive: -2.66%; to `COP(=O)(OC)N1CC1c1ccccc1` (configuration not stated), inactive: -5.46%. In the case of `CCCCOc1ccc(C(=O)NCC2(N3CCCCC3)CCCCC2)cc1OC`, the CPE inhibition is inactive: 4.05%. Then `O=C(O)C(O)c1ccc(N(CCCl)CCCl)cc1` (configuration not stated), with inactive: -12.6%. To `CC1CCNP(=O)(N(CCCl)CCCl)O1` (configuration not stated) belongs inactive: -2.12%. Then `CC(C)NC(=O)NP(=O)(Oc1ccccc1)Oc1ccccc1`, with inactive: -3.05%; and `O=C(OC1CN2CCC1CC2)c1cccc2[nH]cnc12` (configuration not stated), with inactive: 6.8%. As for `COC(=O)C1(C)COP(=O)(N2CCCCCC2)OC1` (configuration not stated), the CPE inhibition is inactive: -5.06%. Then `CC(C)c1ccc(OP(=O)(Nc2ccccn2)Oc2ccccc2F)cc1` (configuration not stated), with inactive: -4.91%; and `Cc1ccc(OP(=O)(Nc2ccc([N+](=O)[O-])cn2)Oc2ccc(C)cc2)cc1`, with inactive: -4.01%; and `[N-]=[N+]=NC1CCCCC1NC(=O)c1cc([N+](=O)[O-])cc([N+](=O)[O-])c1` (configuration not stated), with inactive: 3.88%. Take `Cc1ccc2nc3c(c(C)c2c1)CC(C(Cl)Cl)S3` (configuration not stated): the CPE inhibition was inactive: 1.43%. To `O=[As](O)(c1ccc(O)cc1)c1ccccc1O` belongs inactive: 1.66%. Take `C[As](=O)(O)c1cccc(C(=O)O)c1`: the CPE inhibition is inactive: -0.548%. To `O=[N+]([O-])c1ccc(-c2cc([N+](=O)[O-])c(O)c([N+](=O)[O-])c2)cc1` belongs inactive: -2.34%; to `O=[N+]([O-])c1cc(Oc2ccc([N+](=O)[O-])cc2C(F)(F)F)cc([N+](=O)[O-])c1`, inactive: -3.91%. To `COc1ccc(N/C(=N/P(=O)(N2CCOCC2)N2CCOCC2)N2CCOCC2)cc1` belongs inactive: -2.08%; to `O=P1(N(CCCl)CCCl)Nc2ccccc2N1`, inactive: 1.88%; to `COc1ccc(CN2/C(=N\P(=O)(Oc3ccccc3)Oc3ccccc3)Cc3ccccc3C2C2CC2)cc1` (configuration not stated), inactive: 1.3%.

For `COc1ccc2nc(NP(=O)(c3ccccc3)c3ccccc3)sc2c1`, the CPE inhibition is inactive: -1.16%.
